According to patent publication US20090130190A1:

Test: Equianalgesic potency conversion (Duragesic prescribing information)

**Q.** For Ocycodone, which “potency relative to oral morphine” value is on record?
**A.** twice as potent as oral morphine
